Test results from patent USRE47475E1, “Selective agents for pain suppression” (WiSys Technology Foundation, Inc., priority 2002, dated 2019).

Experiments:
Assay in all cases: competitive binding assay with [3H]flunitrazepam
[1] = molecular target: GABAA/α4 (α4β3γ2 GABAA receptor) (Homo sapiens, UniProt P18507+P48169); conditions: read-out: Binding Affinity at GABAA/α4; Table 3
[2] = molecular target: GABAA/α6 (α6β3γ2 GABAA receptor) (Homo sapiens, UniProt P18507+Q16445); conditions: read-out: Binding Affinity at GABAA/α6; Table 3
[3] = molecular target: GABAA/α1 (α1β3γ2 GABAA receptor) (Homo sapiens, UniProt P14867+P18507); conditions: read-out: Binding Affinity at GABAA/α1; Table 3
[4] = molecular target: GABAA/α3 (α3β3γ2 GABAA receptor) (Homo sapiens, UniProt P18507+P34903); conditions: read-out: Binding Affinity at GABAA/α3; Table 3
[5] = molecular target: GABAA/α5 (α5β3γ2 GABAA receptor) (Homo sapiens, UniProt P18507+P31644); conditions: read-out: Binding Affinity at GABAA/α5; Table 3
[6] = molecular target: GABAA/α2 (α2β3γ2 GABAA receptor) (Homo sapiens, UniProt P18507+P47869); conditions: read-out: Binding Affinity at GABAA/α2; Table 3

Row | SMILES | Ki [1] [nM] | Ki [2] [nM] | Ki [3] [nM] | Ki [4] [nM] | Ki [5] [nM] | Ki [6] [nM]
1 | C#Cc1ccc2c(c1)C(c1ccccc1)=NCC1=N/C(=C\N3CCN(C)CC3)C(=O)N12 | > 5000 | > 5000 |  |  |  | 
2 | C#Cc1ccc2c(c1)C(c1ccccc1)=NCc1c(-c3nc(C(C)C)no3)ncn1-2 |  | > 5000 | > 5000 | 1030 | 152 | 135
